Where only a bound is given, the exact number is not on record here.

The data set deals with Huh-7. The data set is described as follows: NOVARTIS: Cytotoxicity against human hepatocellular carcinoma cell line (Huh7). It is filed as toxicity, cell-based.
`CCCN(CCC)[P+](CC)(N(CCC)CCC)N(CCC)CCC` registered a CC50 of 3.39 µM. The compound `CCCN(CCC)[P+](C)(N(CCC)CCC)N(CCC)CCC` registered a cytotoxic concentration (CC50) of more than 61.2 µM. To `CN(C)[P+](C)(N(C)C)N(C)C` belongs more than 10 µM.

The CC50 is the concentration giving 50% cytotoxicity. A high value points to lower toxicity to the cells.
